Measured values: paper PMC8053108, “RPA2 winged-helix domain facilitates UNG-mediated removal of uracil from ssDNA; implications for repair of mutagenic uracil at the replication fork” (Nucleic Acids Research, 2021)

How the values were obtained:
UNG2 = UNG2 uracil excision from ssDNA preincubated with RPA-WT or RPA-ΔWH; format: biochemical, human; details: 100 nM ssDNA, 0-400 nM RPA (WT or ΔWH); three independent experiments
Protocol: 3′-FAM-labelled, PAGE-purified oligonucleotide substrates were from Sigma-Aldrich. Unless otherwise indicated, the substrate (25 nt) harboured uracil at position 10 in a polyC sequence to avoid secondary structures (U10-25*: […]-FAM). Double-stranded substrate was generated by annealing (heating followed by slow cooling) U10-25* to a non-labelled complementary oligo (A16-25: […]). All assays were performed at 22°C in 10 mM Tris–HCl pH 7.5, 50 mM NaCl, 1 mM DTT, 0.1 mM EDTA, 0.5 mg/ml BSA.
Based on this, 10-fold molar excess of RPA over substrate was employed in subsequent experiments unless otherwise stated. DNA substrate (100 nM final) and RPA (1 μM final) were mixed and incubated on ice for 15 min to form RPA/ssDNA complexes. Varying amounts of UNG were then added, and the mixtures incubated for 10 min in a water bath. To avoid unspecific interactions and binding of enzyme and DNA to the assay tube surface, low-DNA binding tubes and excess of BSA was used in all reactions. Reactions were quenched and AP sites cleaved in 10% piperidine at 90°C for 20 min. Samples were dried by vacuum centrifugation and suspended in formamide-containing loading buffer. Product and substrate were separated in 12% PAGE/7M urea–0.5× TBE gels, bands visualised in ChemiDoc™ Imager (Bio-Rad) and quantified by Image Lab software (Bio-Rad). […]

UNG-CD = assay: Inhibition of UNG-CD uracil excision by RPA pre-incubated with ssDNA; format: biochemical, human; details: 0.2 nM UNG-CD; 100 nM U10-25* ssDNA pre-incubated with RPA; data not shown
Protocol: Based on this, 10-fold molar excess of RPA over substrate was employed in subsequent experiments unless otherwise stated. DNA substrate (100 nM final) and RPA (1 μM final) were mixed and incubated on ice for 15 min to form RPA/ssDNA complexes. Varying amounts of UNG were then added, and the mixtures incubated for 10 min in a water bath. To avoid unspecific interactions and binding of enzyme and DNA to the assay tube surface, low-DNA binding tubes and excess of BSA was used in all reactions. Reactions were quenched and AP sites cleaved in 10% piperidine at 90°C for 20 min. Samples were dried by vacuum centrifugation and suspended in formamide-containing loading buffer. Product and substrate were separated in 12% PAGE/7M urea–0.5× TBE gels, bands visualised in ChemiDoc™ Imager (Bio-Rad) and quantified by Image Lab software (Bio-Rad). Importantly, all assays in which two parameters were compared (e.g. RPA-coated versus naked substrate or WT versus mutated protein) were performed in parallel with the exact same DNA/protein dilutions.

Substance: RPA: recombinant human trimeric replication protein A
- effect on UNG2 uracil excision from ssDNA (UNG2): no decrease in uracil excision
- RPA concentration that fully abolished uracil excision (UNG-CD): > 400 nM
